Reference: patent US20130280282A1, “DR5 LIGAND DRUG CONJUGATES” (Daiichi Sankyo Co., Ltd., priority 2012, published 2013)

Molecular target: T1, recombinant soluble DR5 protein (rsDR5) (human, UniProt O14763 56-183)
T1 construct: Expressed in E. coli from pET21b(+)-sDR5 and purified on Ni-NTA; also called DR5 extracellular domain protein
Experiment: SPR, BIAcore 3000; conjugate captured by anti-human IgG (Fc) on CM5 chip, rsDR5 0.3-85 nM as analyte

B1: hB273-mc-MMAF (antibody drug conjugate of hB273 conjugated with mc-MMAF) (antibody, V domains shown)
VH: EVQLVQSGAEVKKPGASVKVSCKASGYSFIGYFMNWMKQSPGMSLEWIGRFNPYNEDTFYNQKFKGKATLTVDKSTSTAYMELSSLRSEDTAVYFCARSAYYFDSGGYFDYWGQGTLVTVSS
VL: DIVMTQSPLSLPVTPGEPASISCRSSQSLVHSNKNTYLHWYLQKPGQSPQLLIYKVSNRFSGVPDRFSGSGSGTDFTLKISRVEAEDVGVYYCSQSTHVPWTFGPGTKVEIKR
modifications: mc-MMAF drug-linker on cysteine thiols freed by partial TCEP reduction; average about 3.5 to 4.5 drug-linker units per antibody; positions not given
notes: Antibody drug conjugate of hB273; also called h13273-mc-MMAF
B1 gave a Kd of 2.5 nM.
